Our source for the percent reduction of the co-purified amount against wt RPS0A-FLAG values is paper PMC3390373.

For this assay, the target named is FLAG-tagged C-terminally truncated RPS0A (residues 1–197) (S. cerevisiae) (UniProt P32905). The experiment in a line: co-IP; WCE of H2880 wt cells overexpressing wt or C-terminally truncated RPS0A-FLAG; anti-FLAG M2 affinity matrix, 60 min, 4°C, buffer A200T (200 mM KCl, 20 mM Tris pH 8, 5 mM Mg acetate, 1 mM DTT, 0.2% Triton X-100); whole 40S subunits with their associated eIFs are recovered through the tagged RPS0A; Western blot, normalised to ASC1 (Figure 5B).

For the substance “eIF3 (yeast multisubunit eukaryotic initiation factor 3) (from UniProt P38249 1-964; P06103 1-763; P32497 1-812; P40217 1-347; Q04067 1-274; Q05775 1-265) (complex)”, the percent reduction of the co-purified amount against wt RPS0A-FLAG stood at 50%.
